In assay [1] the target is PD-1/PD-L1 interaction (Jurkat cells overexpressing PD-1 co-cultured with PD-L1 expressing CHO cells) (Homo sapiens, UniProt Q9NZQ7). Briefly: PD-1/PD-L1 NFAT Reporter Assay. The settings on record: read-out: PD-1/PD-L1 NFAT Reporter Assay; Table C-1; Jurkat/CHO co-culture, 6 hrs at 37° C., luciferase activity. As for the experimental part:
Blocking the PD-1/PD-L1 interaction will release the inhibitory signal and results in TCR signaling and NFAT-mediated luciferase activity.
CHO cells expressing surface-bound anti-CD3 antibodies and PD-L1 were first seeded overnight and treated with the compounds. Jurkat cells overexpressing PD-1 and a luciferase construct under NF-AT promoter were then immediately seeded on the monolayer of CHO cells. The co-culture was then incubated for 6 hrs at 37° C. Luciferase activity was assessed by adding the ONE-Glo reagent and measuring luminescence with a plate reader. EC50s values were determined from the fit of the dose-response curves
(In general: In a reporter assay the amount or activity of a reporter protein is the signal.)

The chains behind the UniProt entries cited, without tags or fusion partners. Residues count along the entry.
UniProt Q9NZQ7, 19-238 limits assumed: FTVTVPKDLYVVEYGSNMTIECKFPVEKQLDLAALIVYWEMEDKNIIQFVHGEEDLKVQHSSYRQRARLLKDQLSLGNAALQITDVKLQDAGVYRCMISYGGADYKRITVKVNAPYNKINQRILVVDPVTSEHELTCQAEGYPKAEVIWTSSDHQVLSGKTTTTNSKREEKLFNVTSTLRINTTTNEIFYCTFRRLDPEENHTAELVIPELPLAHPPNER
UniProt Q9NZQ7, 19-290 limits assumed: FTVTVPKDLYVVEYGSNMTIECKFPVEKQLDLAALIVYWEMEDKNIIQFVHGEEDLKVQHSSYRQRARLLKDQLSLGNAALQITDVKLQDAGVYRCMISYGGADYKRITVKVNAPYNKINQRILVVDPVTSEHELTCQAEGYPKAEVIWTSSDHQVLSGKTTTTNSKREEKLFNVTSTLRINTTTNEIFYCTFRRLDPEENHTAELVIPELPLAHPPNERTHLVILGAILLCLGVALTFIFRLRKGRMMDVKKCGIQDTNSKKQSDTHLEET

In assay [2] the target is PD-1/PD-L1 interaction (PDL1-6×His protein, PD1-Fc-Avi-Biotin protein) (Homo sapiens, UniProt Q9NZQ7). Briefly: PDL1/PD1 Binding Assay. The following applies: read-out: Biological Data Biochem PD-1/PD-L1; Table C-1; 0.3 nM PDL1, 2.5 nM PD1.

Where only a bound is given, the exact number is not on record here.

As for `CCOC(=O)C1CN(C2CCc3cc(-c4cccc(-c5cccc(-c6cc7c(c(OC)c6)C(N6CC(C(=O)O)C6)CC7)c5Cl)c4Cl)cc(OC)c32)C1` (centres unmarked), the EC50 in assay [1] lay in the range of 100 to 1000 nM. Moreover, the IC50 in assay [2] is less than 10 nM.

Values taken from US11760764B2, “Methods and compositions for targeting PD-L1” (Aligos Therapeutics, Inc., priority 2020, dated 2023).
